The numbers were not newly measured in US20120142750A1, “INDOLEAMINE 2,3-DIOXYGENASE PATHWAYS IN THE GENERATION OF REGULATORY T CELLS” (Regents of the University of Minnesota, priority 2005, published 2012), which cites them from elsewhere.

Amino acid sequences for entries named in this document (tags omitted).
UniProt P14902, whole entry: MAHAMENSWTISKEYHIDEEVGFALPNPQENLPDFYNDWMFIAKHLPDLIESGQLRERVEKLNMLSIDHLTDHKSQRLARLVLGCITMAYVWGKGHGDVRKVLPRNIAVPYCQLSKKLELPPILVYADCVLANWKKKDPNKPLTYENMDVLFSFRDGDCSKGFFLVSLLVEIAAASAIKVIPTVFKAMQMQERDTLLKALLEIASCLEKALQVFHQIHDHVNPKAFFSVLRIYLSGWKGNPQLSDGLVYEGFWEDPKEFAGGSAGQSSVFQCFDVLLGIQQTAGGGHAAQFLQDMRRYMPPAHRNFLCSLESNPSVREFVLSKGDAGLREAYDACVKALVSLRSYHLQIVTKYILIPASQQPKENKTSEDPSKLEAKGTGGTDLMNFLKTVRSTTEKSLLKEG

The target in the first data set is IDO. The following applies: approximate literature value; cited from earlier work.
For the compound `CN1C(=O)C(Cc2c[nH]c3ccccc23)NC1=S` (stereo not drawn), the Ki – broadly, the equilibrium dissociation constant of an inhibitor or competing ligand from its target – is 11 µM. On to `CNC(=N)NC(=N)Nc1cc2ccccc2c2ccccc12`, for which the Ki was 1.5 µM.

The next data set concerns the target IDO (Homo sapiens, UniProt P14902). The following applies: approximate literature value; cited from earlier work.
As to `OCc1c[nH]c2ccccc12`, the EC50 – broadly, the midpoint of the concentration-response curve – is 100 µM. For `COC(=O)C1Cc2c([nH]c3ccccc23)C(C(=O)OC)Cc2c1[nH]c1ccccc21` (stereo not drawn), the half-maximal effective concentration (EC50) was 1 µM. Consider `CN1C(=O)C(Cc2c[nH]c3ccccc23)NC1=S` (stereo not drawn), for which the EC50 was 12 to 20 µM.

With `COc1ccc(C(Nc2ccccn2)c2cc(C(C)(C)C)cc(C(C)(C)C)c2O)cc1` (stereo not drawn), the concentration for a half-maximal effect (EC50) is 6 µM. Take `O=C1C(Cc2c[nH]c3ccccc23)NC(=S)N1c1ccccc1` (stereo not drawn): the concentration giving a half-maximal response (EC50) is 100 µM. In the case of `O=C1N=c2ccc(S(=O)(=O)O)cc2=C1NNc1ccccc1[N+](=O)[O-]`, the concentration for a half-maximal effect (EC50) is 5 µM. For the compound `CNC(=N)NC(=N)Nc1cc2ccccc2c2ccccc12`, the concentration giving a half-maximal response (EC50) was 3 µM. `N=C(c1ccc2ccccc2c1)c1ccccc1Cc1ccccc1`: the EC50 is 5 µM. As to `CC(=O)Oc1cn(C(C)=O)c2ccc(Br)cc12`, the EC50 was 200 µM. Turning to `C=CCN1C(=O)C(Cc2c[nH]c3ccccc23)NC1=S` (stereo not drawn), the concentration for a half-maximal effect (EC50) is 50 µM.
